Measured values: ChEMBL document CHEMBL1130737, “Inhibitors of acyl-CoA:cholesterol O-acyltransferase (ACAT) as hypocholesterolemic agents: synthesis and structure-activity relationships of novel series of sulfonamides, acylphosphonamides and acylphosphoramidates” (Bioorg Med Chem Lett, 1998)

The compounds below were run against T1, Acyl-CoA:cholesterol acyltransferase (Oryctolagus cuniculus, UniProt Q95214) (assay: In vitro inhibition of ACAT by incubation with [1-14C]oleolyl-CoA and intestinal microsomes isolated from cholesterol-fed rabbits.).
T1 sequence (Q95214 whole entry): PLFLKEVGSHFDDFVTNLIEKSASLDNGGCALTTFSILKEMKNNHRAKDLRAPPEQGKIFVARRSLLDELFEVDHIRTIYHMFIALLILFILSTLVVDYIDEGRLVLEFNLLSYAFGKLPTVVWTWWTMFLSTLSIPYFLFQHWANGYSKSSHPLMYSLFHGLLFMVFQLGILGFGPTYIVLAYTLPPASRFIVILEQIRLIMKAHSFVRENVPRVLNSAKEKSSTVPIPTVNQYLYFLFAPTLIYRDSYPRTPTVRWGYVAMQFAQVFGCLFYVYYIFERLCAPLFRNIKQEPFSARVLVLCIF
Set-up: species or system Intestine

Row | IC50 [nM] | Compound
1 | 230 | CCCCCCCCCCCCCCOC(=O)CS(=O)(=O)Nc1c(C(C)C)cccc1C(C)C
2 | 110 | CCCCCCCCCCCCOC(=O)CS(=O)(=O)Nc1c(C(C)C)cccc1C(C)C
3 | 4200 | CCCCCCCCN(CCCCCCCC)C(=O)CS(=O)(=O)Nc1c(C(C)C)cccc1C(C)C
